## Yeast mating assay B: variants of the scFv Ab-14

Source: Li et al. 2023 (doi:10.1038/s41467-023-39022-2), MIT Lincoln Laboratory and A-Alpha Bio; data file from the FLAb repository.

Antigen: PDVDLGDISGINAS, a 14-residue peptide of the SARS-CoV-2 spike HR2 region.

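The starting antibody came from a phage panning campaign against this peptide. The variants were designed computationally from a first round of random CDR variants and then made and measured. Several design methods are mixed in this list. In AlphaSeq, yeast of one mating type display the scFv and yeast of the other type display the target. After mating in shaken culture at 30 °C for 16 h, diploids were selected and their barcode pairs sequenced. Scores were corrected for input abundance and mapped to Kd with protein pairs of known affinity run in the same pool. There are six technical replicates.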

Ab-14 is the parent antibody, in scFv form: VH, then a 15-residue (Gly4Ser)3 linker, then VL. The heavy chain is unchanged in all variants.
VH: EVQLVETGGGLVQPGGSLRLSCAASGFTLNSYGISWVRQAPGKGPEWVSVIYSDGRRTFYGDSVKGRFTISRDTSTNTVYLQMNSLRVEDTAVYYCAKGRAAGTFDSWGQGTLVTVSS
VL: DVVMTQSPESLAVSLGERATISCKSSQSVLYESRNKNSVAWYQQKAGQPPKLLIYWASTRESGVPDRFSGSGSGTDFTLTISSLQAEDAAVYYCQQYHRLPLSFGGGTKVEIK

Each variant is given by its three light chain CDRs, as the data file delimits them; those of the parent are KSSQSVLYESRNKNSVA, WASTRES, QQYHRLPLS. This list holds designs with more than six substitutions. Each Kd is an estimate from the mating assay, the geometric mean of the replicates in which the pair was seen; lower is stronger. "no signal" marks a missing value. The strain was present, yet no cells mated with the target were sequenced in any replicate, which points to weak or no binding. The parent sequence was in this pool as ten entries: three were never detected, three once, and four in most replicates, with averages from 2.2 nM to 240 nM. Three control strains display no target. For all light chain designs, 4% of the pairings with them gave a signal, with a median of 430 nM and one signal in twenty below 38 nM, so weak values seen in few replicates may be background. For each scFv, signals with the empty controls are counted beside the result. Values of this round are not directly comparable with the first-round values of the same sequences. The authors averaged sequences with at least three values out of six and counted those with two or fewer as poor binders.

Variant KVHAYVQGVEQDMQNIA / ETSYASR / QQYFRLPLS showed 35 nM (6 of 6 replicates; controls 2 of 18).
Variant TISQSVLMTGLNRNSVA / QASERIE / QQYHRLPLS showed 2.9 nM (6 of 6 replicates; controls 1 of 18).
Variant KLSQSWLYEARNSNSVA / AASQRED / QQYHRLPLS showed 2.5 nM (6 of 6 replicates; controls 2 of 18).
Variant HIQDARGGLSEQFNSVA / STEERSH / QQYHRLPLS showed 9.3 nM (6 of 6 replicates; controls 1 of 18).
Variant RVQINSGHSDMHWKSIA / SASLRAS / QQYARLPLE showed 34 nM (6 of 6 replicates; controls 1 of 18).
Variant IVSQLMLWGYTAKNSIA / EAETRIN / QQYHRLPLF showed 4.8 nM (6 of 6 replicates; controls 1 of 18).
Variant FLPMKELQMSENTNNVA / DSEQKMK / QQYSRLPLM showed 1.1 nM (6 of 6 replicates; controls 1 of 18).
Variant KMQGSVMMLSRNDNSVA / QASTREE / QQYHRLPLS showed 1.4 nM (6 of 6 replicates; controls 0 of 18).
Variant KLPLATMQENVSKNNVA / ELSTRGS / QQYHRLPLS showed 180 nM (6 of 6 replicates; controls 2 of 18).
Variant ILSQMMLMAGNKHSSVA / QANNRND / QQYHRLPLS showed 200 nM (2 of 6 replicates; controls 1 of 18).
Variant SLIPFENQIMKGLNNIA / NTQVRAS / QQYMRLPFM showed 790 pM (6 of 6 replicates; controls 0 of 18).
Variant TVSEVHGMLSHNKNSVA / DMNTRGS / QQYDRLPLS showed 1.3 nM (6 of 6 replicates; controls 0 of 18).
Variant HVAMLLGQQHGKQANIA / EADELMT / QQYYTLPLA showed 4.7 nM (6 of 6 replicates; controls 1 of 18).
Variant KYWQSHLGESRNKNAVA / NASTREE / QQYHRLPLS showed 1.1 nM (6 of 6 replicates; controls 0 of 18).
Variant ALELEEMQMMKDINSIA / NTEHKTR / QQYFRLPIS showed 9.7 nM (6 of 6 replicates; controls 2 of 18).
Variant KLYMMTGYESRNKDSIA / DNSTRGR / QQYHRLPLS showed 79 nM (6 of 6 replicates; controls 1 of 18).
Variant QIAMAMYHGLNDNQNIA / DAMTYIK / QQYSRLPLF showed 19 nM (6 of 6 replicates; controls 1 of 18).
Variant MVSQLMVWGMHAKNSIA / EAQTRIN / QQYDRLPLF showed 77 nM (6 of 6 replicates; controls 0 of 18).
Variant KVQWLWPYWSRNWNSVA / NASTREQ / QQYHRLPLS showed 1.2 nM (6 of 6 replicates; controls 1 of 18).
Variant MMSQVTGQGTRHRNNVA / QTSTREP / QQYDHLPLI showed 10 nM (6 of 6 replicates; controls 1 of 18).
Variant KLLQEVTGASRNRNSVA / HNSTRED / QQYDRLPLS showed 17 nM (6 of 6 replicates; controls 0 of 18).
Variant KISQMIRVGSTASNSIA / EEVTRAK / QQYHRLPLF showed 18 nM (6 of 6 replicates; controls 0 of 18).
Variant MMSQLFEGLSTSKNPVA / QVSTREE / QQYHRLPLS showed 19 nM (6 of 6 replicates; controls 2 of 18).
Variant KIGMTLNTLLHKKNNVA / DLVEREN / QQYFRLPLS showed 1.8 nM (6 of 6 replicates; controls 1 of 18).
Variant KVSSFMRGLMMRKDSIA / DNETRIN / QQYDRLPLS showed 93 nM (6 of 6 replicates; controls 1 of 18).
Variant KIMQSLNYESFNKNSVA / GQETRER / QSYHRLPLS showed 400 nM (6 of 6 replicates; controls 2 of 18).
Variant NIRGVEFESAMMGNAVA / GMSLVEA / QQYFRLPLH showed 28 nM (6 of 6 replicates; controls 1 of 18).
Variant QIDSQYQHGTDQKKAMA / DSSVRTQ / QQYSRLPLS showed 470 pM (6 of 6 replicates; controls 0 of 18).
Variant KISQSEPYEDRNFNSVA / NASYRCS / QQYHRLPLS showed 3.1 nM (6 of 6 replicates; controls 1 of 18).
Variant KIDISELGESRNWNSVA / NASTREE / QQYHRLPLS showed 1.3 nM (6 of 6 replicates; controls 2 of 18).
Variant ALSQSMDMTSRNKNSVA / DLSTRAN / QQYHRLPLS showed 580 pM (6 of 6 replicates; controls 0 of 18).
Variant SLMNLMGGIEEMKNSIA / NHEIGVR / QQYAHLPLV showed no signal (0 of 6 replicates; controls 0 of 18).
Variant IVSQLMLIGMHAKNSIA / EAEKRIN / QQYHRLPLI showed 100 nM (6 of 6 replicates; controls 3 of 18).
Variant MISQVMNTLTRHGNNVA / DLQNRES / QQYFRLPLS showed 19 nM (6 of 6 replicates; controls 1 of 18).
Variant KLQMQAEMESRNKNSVA / QANTRES / QQYHRLPLS showed 430 pM (6 of 6 replicates; controls 0 of 18).
Variant KVSWSVELQSRNKGQVA / SASTREL / QQYHRLPLS showed 2.4 nM (6 of 6 replicates; controls 1 of 18).
Variant KIGMTLNTLYEKKNNVA / DLVMREM / QQYHRLPLS showed 4.3 nM (6 of 6 replicates; controls 0 of 18).